# Assay results published in publication PMC10892093 (Pharmaceutics, 2024).
# Where two headings read alike, the source gives them in different places.
# Target: T1, UGT2B7 (Homo sapiens, UniProt P16662)
# T1 construct: expressed in transfected cells; microsomal fraction
# T1 sequence (P16662 24-529): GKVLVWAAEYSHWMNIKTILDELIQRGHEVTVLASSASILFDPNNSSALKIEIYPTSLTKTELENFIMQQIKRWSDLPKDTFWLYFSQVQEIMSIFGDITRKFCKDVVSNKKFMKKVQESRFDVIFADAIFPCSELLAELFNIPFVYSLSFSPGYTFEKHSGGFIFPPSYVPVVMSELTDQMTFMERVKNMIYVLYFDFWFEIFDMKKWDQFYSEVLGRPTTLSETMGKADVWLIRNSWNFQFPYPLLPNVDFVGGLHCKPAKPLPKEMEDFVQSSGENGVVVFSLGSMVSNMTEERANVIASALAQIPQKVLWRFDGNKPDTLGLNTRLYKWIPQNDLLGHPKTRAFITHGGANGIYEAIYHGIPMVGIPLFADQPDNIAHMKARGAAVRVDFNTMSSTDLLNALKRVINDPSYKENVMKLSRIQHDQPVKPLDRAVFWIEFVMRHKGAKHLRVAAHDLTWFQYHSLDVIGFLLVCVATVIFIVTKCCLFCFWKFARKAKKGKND
# Test: Inhibition of R- and S-oxazepam glucuronidation in rUGT2B7 microsomes (UGT-overexpressing HEK293)
# Format: biochemical
# Method: Human embryonic kidney cells (HEK293) stably overexpressing the single UGTs 1A9, 2B7, and 2B15 have been previously established and described. Cells were grown in DMEM supplemented with 350 μg/mL of geneticin and 10% FBS and harvested in PBS. Microsomal fractions of UGT-overexpressing cell lines were prepared by differential centrifugation using previously described protocols. Briefly, cell homogenates were prepared by resuspending pelleted cells in PBS, followed by five rounds of freeze–thaw cycles prior to homogenization. Recombinant microsomes (rUGTs) were prepared by centrifuging the cell homogenate at a low speed (9000× g for 30 min) followed by ultracentrifugation (34,000× g for 60 min), with the total protein subsequently determined using a BCA assay. Recombinant microsomes (UGT1A9 and 2B7) and homogenates (UGT2B15) were used for inhibition studies.
# A Waters Corp BEH C18 Acquity UPLC column (1.7 µM, 2.1 × 100 mm) was used at a constant temperature of 40 °C for chromatographic separation. An elution gradient was used for 6.5 min with mobile phases A (5 mM ammonium formate) and B (100% methanol) under the following conditions: 90% A for 0.5 min, followed by a linear gradient for 3 min to 60% A, 1 min at 5% A, and re-equilibration for 1 min at 90% A.
# The reaction was initiated by the addition of 4 mM UDPGA as the cofactor and incubated for 2 h at 37 °C. The reaction was terminated by adding 30 µL of an ice-cold stop solution (acetonitrile/methanol; 1:1). The reaction mixtures were centrifuged at 17,000× g for 30 min at 4 °C, and the supernatant was transferred to UPLC sample glass vial for analysis using UPLC–MS/MS (described above). […] As a positive control for inhibition assays, ketoconazole (10 μM and 100 µM) was used as a potential inhibitor of the UGTs 1A9, 2B7, and 2B15. Reactions containing only the cannabinoid vehicle (3% methanol) and without any inhibitor (cannabinoids) were used as a baseline reaction for 100% enzyme activity, while a reaction without UDPGA was used as a negative control. All experiments were performed in three independent experiments.
# Determination of IC50 and Ki Values. […] The nonspecific binding constants (fu,inc) for cannabinoids in HEK293 microsomes, HLM, and HKM were previously determined and used to calculate the inhibition by unbound (‘free’) cannabinoid in each reaction. A nonlinear regression analysis and the following equation were used to calculate the IC50 values:(1) y = Bottom +Top − Bottom / 1 + 10^x − LogIC50A where ‘Bottom’ is the maximum observed inhibition (lowest percent activity) and ‘Top’ is the minimum observed inhibition (highest percent activity) for a given cannabinoid.
smiles,measurement,setting,value
"C=C(C)[C@@H]1CCC(C)=C[C@H]1c1c(O)cc(CCCCC)cc1O [CBD, cannabidiol]",IC50,"IC50 corrected with fu,inc, read-out: IC50,u, R-Oxazepam Glucuronide",100 ± 45 nM
same,IC50,"IC50 corrected with fu,inc, read-out: IC50,u, S-Oxazepam Glucuronide",110 ± 110 nM
same,IC50,"read-out: IC50, R-Oxazepam Glucuronide",2600 ± 1200 nM
same,IC50,"read-out: IC50, S-Oxazepam Glucuronide",2900 ± 2900 nM
